Test results: patent US20250154219A1, “PEPTIDE ANALOGS” (Adepthera LLC, priority 2017, published 2025)

Chains of the proteins cited; added tags and fusions are not shown. Residues count along the entry.
UniProt O60894, 27-148: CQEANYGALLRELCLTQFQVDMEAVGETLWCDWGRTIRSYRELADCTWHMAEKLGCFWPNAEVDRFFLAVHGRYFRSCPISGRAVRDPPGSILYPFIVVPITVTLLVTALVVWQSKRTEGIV
UniProt Q16602, 23-461: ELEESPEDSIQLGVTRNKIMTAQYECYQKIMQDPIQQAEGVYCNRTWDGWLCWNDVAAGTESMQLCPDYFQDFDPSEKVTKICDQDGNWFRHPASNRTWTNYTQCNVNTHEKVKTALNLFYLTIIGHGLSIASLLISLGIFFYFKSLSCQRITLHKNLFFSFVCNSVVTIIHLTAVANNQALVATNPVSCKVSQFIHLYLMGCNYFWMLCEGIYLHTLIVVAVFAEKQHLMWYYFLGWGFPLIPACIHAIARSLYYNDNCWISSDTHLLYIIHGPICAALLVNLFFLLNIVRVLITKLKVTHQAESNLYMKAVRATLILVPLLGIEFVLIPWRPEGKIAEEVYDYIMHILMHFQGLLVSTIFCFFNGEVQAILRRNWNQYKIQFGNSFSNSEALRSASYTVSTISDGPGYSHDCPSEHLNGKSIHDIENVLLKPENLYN
UniProt O60895, 43-175: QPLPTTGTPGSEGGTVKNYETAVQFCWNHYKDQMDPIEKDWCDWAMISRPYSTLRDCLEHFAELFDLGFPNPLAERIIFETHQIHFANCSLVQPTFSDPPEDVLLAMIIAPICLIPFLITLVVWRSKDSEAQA
UniProt O60896, 24-148: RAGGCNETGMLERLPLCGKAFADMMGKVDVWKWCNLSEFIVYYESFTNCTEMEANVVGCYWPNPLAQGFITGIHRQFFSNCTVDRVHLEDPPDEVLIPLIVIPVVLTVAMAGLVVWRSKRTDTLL

Legend:
Assay type in all cases: cell-based
apelin receptor AGTRL1 = biological target: T1, apelin receptor AGTRL1 (Homo sapiens, UniProt P35414); experiment: AGTRL1 cAMP assay
T1 sequence (P35414 1-380): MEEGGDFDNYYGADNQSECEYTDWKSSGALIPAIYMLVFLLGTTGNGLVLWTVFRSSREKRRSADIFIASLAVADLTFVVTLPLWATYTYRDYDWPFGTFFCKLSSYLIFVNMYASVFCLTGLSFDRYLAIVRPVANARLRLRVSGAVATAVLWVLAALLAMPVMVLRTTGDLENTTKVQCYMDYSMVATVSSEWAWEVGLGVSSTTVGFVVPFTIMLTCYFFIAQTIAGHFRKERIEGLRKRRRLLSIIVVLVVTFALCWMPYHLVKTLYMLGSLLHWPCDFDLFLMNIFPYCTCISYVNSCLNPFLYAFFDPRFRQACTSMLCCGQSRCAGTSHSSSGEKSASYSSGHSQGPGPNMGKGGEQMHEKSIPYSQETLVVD

CLR/RAMP1 receptor [1] = biological target: T2, CLR/RAMP1 receptor (Homo sapiens, UniProt O60894+Q16602); experiment: CLR/RAMP1 cAMP receptor-activation assay (agonist mode); settings: 1321N1 cells stably expressing CLR/RAMP1;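 further: Dose–response over 10 threefold dilutions from 1.0 µM, run in duplicate, luminescent cAMP detection (RLU), activity scaled between vehicle control (0%) and maximal control (100%)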
CLR/RAMP2 receptor [2] = biological target: T3, CLR/RAMP2 receptor (Homo sapiens, UniProt O60895+Q16602); experiment: CLR/RAMP2 arrestin receptor-activation assay (agonist mode); settings: CHO-K1 cells stably expressing CLR/RAMP2;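 further: agonist dose-response in recombinant cell lines stably expressing each receptor complex, duplicate wells over 10 threefold dilutions from a top concentration of 1.0 µM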
[3] = biological target: T4, bradykinin receptor 1 (BDKRB1) (Homo sapiens, UniProt P46663); experiment: BDKRB1 calcium flux assay, antagonist mode
T4 sequence (P46663 1-353): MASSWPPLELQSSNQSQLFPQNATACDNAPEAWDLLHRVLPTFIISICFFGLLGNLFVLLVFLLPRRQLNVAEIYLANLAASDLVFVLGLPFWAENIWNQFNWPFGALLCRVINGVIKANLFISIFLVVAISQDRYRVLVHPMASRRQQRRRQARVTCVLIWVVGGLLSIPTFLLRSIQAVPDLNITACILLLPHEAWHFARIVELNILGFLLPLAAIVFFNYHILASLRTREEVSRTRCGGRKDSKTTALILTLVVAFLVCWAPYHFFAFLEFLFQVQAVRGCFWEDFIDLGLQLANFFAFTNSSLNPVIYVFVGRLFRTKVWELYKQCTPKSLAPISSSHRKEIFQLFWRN

CLR/RAMP2 receptor [4] = biological target: T3, CLR/RAMP2 receptor; experiment: CLR/RAMP2 arrestin assay, antagonist mode (ADM-stimulated); settings: ADM-stimulated (EC80) CLR/RAMP2 receptor activation
CLR/RAMP1 receptor [5] = biological target: T2, CLR/RAMP1 receptor; experiment: CLR/RAMP1 cAMP assay, antagonist mode (CGRP-stimulated); settings: CGRP-stimulated (EC80) CLR/RAMP1 receptor activation
[6] = biological target: type 1 angiotensin II receptor AGTR1 (Homo sapiens, UniProt P30556); experiment: AGTR1 calcium flux assay, antagonist mode
CLR/RAMP3 receptor = CLR/RAMP3 receptor (Homo sapiens, UniProt O60896+Q16602); experiment: CLR/RAMP3 cAMP receptor-activation assay (agonist mode); settings: CHO-K1 cells stably expressing CLR/RAMP3

Row | Substance | EC50 (CLR/RAMP1 receptor [1]) | EC50 (CLR/RAMP2 receptor [2]) | also measured
1 | (G1p)RPRLSHKGPMPF [Apelin 13, reference compound] |  |  | EC50 (apelin receptor AGTRL1): 0.6 nM; EC50 (apelin receptor AGTRL1; listed as apelin-13): 0.57 nM
2 | (Glp)RPRLSHKGP(Nle)PF-miniPEG-K(PAL)GCRFGTCTVQKLAHQIYQFTDKDVAPRSKISPQGY-NH2 [SEQ ID NO: 228] | 0.6 nM | 2 nM | EC50 (apelin receptor AGTRL1): 38.5 nM and 38 nM
3 | Ace-KRPPGFS-DβNal-I-miniPEG-K(PAL)GCRFGTCTVQKLAHQIYQFTDKDVAPRSKISPQGY-NH2 [SEQ ID NO: 231] | 0.8 nM | 1 nM | IC50 [3]: 79.4 nM and 79 nM
4 | Ace-NFVPTNVGPFAF-NH2 [SEQ ID NO: 144] |  |  | IC50 (CLR/RAMP2 receptor [4]): > 10000 nM
5 | Ace-PEG3-K(Hexadecanoyl-PEG3-isoGlu)GCRFGTCTVQKLAHQIYQFTDKDKDNVAPRSKISPQGY-NH2 [SEQ ID NO: 154] | 1.6 nM | 1.7 nM | 
6 | Ace-PEG3-K(Hexadecanoyl-isoGlu)GCRFGTCTVQKLAHQIYQFTDKDKDNVAPRSKISPQGY-NH2 [SEQ ID NO: 151] | 0.5 nM | 1.4 nM | 
7 | Ace-PEG3-K(Hexadecanoyl-isoGlu-PEG3)GCRFGTCTVQKLAHQIYQFTDKDKDNVAPRSKISPQGY-NH2 [SEQ ID NO: 152] | 2.5 nM | 2.4 nM | 
8 | Ace-PEG3-K(Hexadecanoyl-isoGlu-PEG3-PEG3)GCRFGTCTVQKLAHQIYQFTDKDKDNVAPRSKISPQGY-NH2 [SEQ ID NO: 153] | 7.3 nM | 3.5 nM | 
9 | Ace-PEG3-K([19-carboxy-nonadecanoyl]-PEG3-isoGlu)GCRFGTCTVQKLAHQIYQFTDKDKDNVAPRSKISPQGY-NH2 [SEQ ID NO: 156] | 0.8 nM | 1.2 nM | 
10 | Ace-PEG3-K([19-carboxy-nonadecanoyl]-isoGlu)GCRFGTCTVQKLAHQIYQFTDKDKDNVAPRSKISPQGY-NH2 [SEQ ID NO: 155] | 0.6 nM | 1.8 nM | 
11 | Ace-PEG3-K([19-carboxy-nonadecanoyl]-isoGlu-PEG3)GCRFGTCTVQKLAHQIYQFTDKDVAPRSKISPQGY-NH2 [SEQ ID NO: 159] | 1.3 nM | 1.1 nM | 
12 | Ace-PEG3-K([19-carboxy-nonadecanoyl]-isoGlu-Peg3-Peg3)GCRFGTCTVQKLAHQIYQFTDKDKDNVAPRSKISPQGY-NH2 [SEQ ID NO: 157] | 2.8 nM | 1.8 nM | 
13 | Ace-PEG12-PEG12-K([19-carboxy-nonadecanoyl]-isoGlu-PEG3)GCRFGTCTVQKLAHQIYQFTDKDKDNVAPRSKISPQGY-NH2 [SEQ ID NO: 150] | 2.4 nM | 1.9 nM | 
14 | Ace-RPKPQQFFGLM-miniPEG-K(PAL)GCRFGTCTVQKLAHQIYQFTDKDSAPVDPSSPHSY-NH2 [SEQ ID NO: 147] | 0.14 nM | 0.71 nM | 
15 | Ace-Y(D-Ala)GF(D-Leu)-miniPEG-K(Pal)VQKLSAPVDPSSPHSY-NH2 [SEQ ID NO: 145] |  |  | IC50 (CLR/RAMP1 receptor [5]): < 0.5 nM
16 | Ace-YGGFLRRIRPKLK-miniPEG-K(Pal)VQKLSAPVDPSSPHSY-NH2 [SEQ ID NO: 146] |  |  | IC50 (CLR/RAMP1 receptor [5]): < 0.5 nM
17 | AcePEG3--K([17-carboxy-heptadecanoyl]-isoGlu-Peg3-Peg3)GCRFGTCTVQKLAHQIYQFTDKDKDNVAPRSKISPQGY-NH2 [SEQ ID NO: 158] | 5.7 nM | 3.6 nM | 

Row | Substance | EC50 (CLR/RAMP1 receptor [1]) | EC50 (CLR/RAMP2 receptor [2]) | also measured
18 | Pyr(glu)-LYENKPRRPYIL-miniPEG-K(PAL)GCRFGTCTVQKLAHQIYQFTDKDVAPRSKISPQGY-NH2 [SEQ ID NO: 223] | 0.8 nM | 1 nM | 
19 | Pyr(glu)-LYENKPRRPYIL-miniPEG-K(Pal)VQKLSAPVDPSSPHSY-NH2 [SEQ ID NO: 224] | 0.3 nM |  | IC50 (CLR/RAMP1 receptor [5]): < 0.5 nM; IC50 (CLR/RAMP2 receptor [4]): 1.5 nM
20 | Sar-RVYVHPA-miniPEG-K(PAL)GCRFGTCTVQKLAHQIYQFTDKDVAPRSKISPQGY-NH2 [SEQ ID NO: 234] | 0.3 nM | 1 nM | IC50 [6]: 19.9 nM and 20 nM
21 | miniPEG-K(PAL)CRFGTCTVQKLAHQIYQFTDKDKDNSAPVDPSSPHSY-NH2 [SEQ ID NO: 43] | 0.5 nM | 0.2 nM | 
22 | miniPEG-K(PAL)GCRFGTC(D-Thr)VQKLAHQIYQFTDKDVAPRSKISPQGY-NH2 [SEQ ID NO: 210] | 7.1 nM | 1.4 nM | 
23 | miniPEG-K(PAL)GCRFGTCT(D-Val)QKLAHQIYQFTDKDVAPRSKISPQGY-NH2 [SEQ ID NO: 211] | 8 nM | 0.9 nM | 
24 | miniPEG-K(PAL)GCRFGTCTVQKLAHQIYQFTDKDKDNVAPRSKISPQGY-NH2 [SEQ ID NO: 69] |  | 0.6 nM | EC50 (CLR/RAMP3 receptor): 0.6 nM
25 | miniPEG-K(PAL)GCRFGTCTVQKLAHQIYQFTDKDKDNVAPVDPSSPHSY-NH2 [SEQ ID NO: 50] | 1.2 nM | 1.2 nM | 
26 | miniPEG-K(PAL)GCRFGTCTVQKLAHQIYQFTDKDKDNVDPSSPHSY-NH2 [SEQ ID NO: 94] | 11 nM | 1.3 nM | 
27 | miniPEG-K(PAL)GCRFGTCTVQKLAHQIYQFTDKDKDSAPVDPSSPHSY-NH2 [SEQ ID NO: 46] | 0.7 nM | 0.5 nM | 
28 | miniPEG-K(PAL)GCRFGTCTVQKLAHQIYQFTDKDKQDSAPVDPSSPHSY-NH2 [SEQ ID NO: 51] | 0.2 nM | 0.3 nM | 
29 | miniPEG-K(PAL)GCRFGTCTVQKLAHQIYQFTDKDKSAPVDPSSPHSY-NH2 [SEQ ID NO: 47] | 1.5 nM | 0.4 nM | 
30 | miniPEG-K(PAL)GCRFGTCTVQKLAHQIYQFTDKDVAPR(D-Ser)KISPQGY-NH2 [SEQ ID NO: 213] | 0.7 nM | 0.7 nM | 
31 | miniPEG-K(PAL)GCRFGTCTVQKLAHQIYQFTDKDVAPRSKISP(D-Gln)GY-NH2 [SEQ ID NO: 214] | 1.1 nM | 0.4 nM | 
32 | miniPEG-K(PAL)GCRFGTCTVQKLAHQIYQFTDKDVAPRSKISPQGY-NH2 [SEQ ID NO: 101] |  | 0.3 nM | EC50 (CLR/RAMP3 receptor): 0.5 nM
33 | miniPEG-K(PAL)GCRFGTCTVQKLAHQIYQFTDKGRQDSAPVDPSSPHSY-NH2 [SEQ ID NO: 68] |  | 7 nM | 

Several values for one entry are separate records, joined by “and”; a condition that tells them apart may be missing. Equal values may be shown once. Read-outs that look alike come from different tables or passages of the source.
